For orientation: IC50 means the concentration that inhibits the measured activity by half. The low end stands for inhibition by little substance, the high end for a need for much substance.

These results are taken from article PMC11022890 (Drug Metabolism and Disposition, 2021).

In one data set the target is T1, UGT1A9 (Homo sapiens, UniProt O60656).
T1 sequence (O60656 26-530): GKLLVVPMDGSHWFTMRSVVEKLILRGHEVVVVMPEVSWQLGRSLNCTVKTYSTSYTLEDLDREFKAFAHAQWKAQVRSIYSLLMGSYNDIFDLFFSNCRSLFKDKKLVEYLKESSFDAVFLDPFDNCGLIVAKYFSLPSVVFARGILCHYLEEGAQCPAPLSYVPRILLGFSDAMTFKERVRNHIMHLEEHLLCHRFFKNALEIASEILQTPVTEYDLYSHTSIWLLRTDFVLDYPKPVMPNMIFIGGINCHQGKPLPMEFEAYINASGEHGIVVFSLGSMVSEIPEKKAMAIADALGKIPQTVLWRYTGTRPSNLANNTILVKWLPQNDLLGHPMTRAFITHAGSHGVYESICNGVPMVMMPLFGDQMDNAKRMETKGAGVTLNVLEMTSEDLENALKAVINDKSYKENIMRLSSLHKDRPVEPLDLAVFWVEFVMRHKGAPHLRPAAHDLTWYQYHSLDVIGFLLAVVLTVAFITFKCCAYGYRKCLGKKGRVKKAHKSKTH
Kind of data set: Inhibition of propofol glucuronidation in rUGT1A9 microsomes. The format is in vitro ADME.

Data set [1] has as its target T2, UGT1A9 in human liver microsomes (Homo sapiens, UniProt O60656).
T2 sequence (O60656 26-530): T1 sequence (O60656 26-530)
The settings on record: UGT1A9 substrates propofol, furosemide, acetaminophen.

Data set [2] addresses T3, UGT2B7 (Homo sapiens, UniProt P16662).
T3 sequence (P16662 24-529): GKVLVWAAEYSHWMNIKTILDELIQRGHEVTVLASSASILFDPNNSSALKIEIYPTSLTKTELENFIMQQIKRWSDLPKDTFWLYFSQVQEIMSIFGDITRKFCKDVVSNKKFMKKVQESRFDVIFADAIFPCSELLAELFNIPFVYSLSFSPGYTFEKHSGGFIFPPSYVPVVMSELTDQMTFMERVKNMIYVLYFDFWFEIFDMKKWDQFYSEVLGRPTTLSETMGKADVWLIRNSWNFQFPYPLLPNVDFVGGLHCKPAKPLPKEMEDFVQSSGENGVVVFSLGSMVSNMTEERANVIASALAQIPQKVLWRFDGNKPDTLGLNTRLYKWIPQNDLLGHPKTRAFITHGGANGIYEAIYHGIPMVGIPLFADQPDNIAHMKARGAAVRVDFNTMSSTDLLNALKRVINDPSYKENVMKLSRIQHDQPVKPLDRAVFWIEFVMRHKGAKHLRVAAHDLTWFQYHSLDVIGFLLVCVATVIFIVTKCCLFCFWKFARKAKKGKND
Kind of data set: biochemical. The settings on record: rUGT2B7 microsomes.

Data set [3] deals with T4, UGT2B7 in human kidney microsomes (Homo sapiens, UniProt P16662).
T4 sequence (P16662 24-529): T3 sequence (P16662 24-529)
The data set is described as follows: Inhibition of AZT glucuronidation. The settings on record: HKM.

Data set [4] has as its target T5, UGT2B7 in human liver microsomes (Homo sapiens, UniProt P16662).
T5 sequence (P16662 24-529): T3 sequence (P16662 24-529)
The data set is described as follows: Inhibition of AZT glucuronidation. The settings on record: HLM.

In the next data set the target is T6, UGT2B4 (Homo sapiens, UniProt P06133).
T6 sequence (P06133 24-528): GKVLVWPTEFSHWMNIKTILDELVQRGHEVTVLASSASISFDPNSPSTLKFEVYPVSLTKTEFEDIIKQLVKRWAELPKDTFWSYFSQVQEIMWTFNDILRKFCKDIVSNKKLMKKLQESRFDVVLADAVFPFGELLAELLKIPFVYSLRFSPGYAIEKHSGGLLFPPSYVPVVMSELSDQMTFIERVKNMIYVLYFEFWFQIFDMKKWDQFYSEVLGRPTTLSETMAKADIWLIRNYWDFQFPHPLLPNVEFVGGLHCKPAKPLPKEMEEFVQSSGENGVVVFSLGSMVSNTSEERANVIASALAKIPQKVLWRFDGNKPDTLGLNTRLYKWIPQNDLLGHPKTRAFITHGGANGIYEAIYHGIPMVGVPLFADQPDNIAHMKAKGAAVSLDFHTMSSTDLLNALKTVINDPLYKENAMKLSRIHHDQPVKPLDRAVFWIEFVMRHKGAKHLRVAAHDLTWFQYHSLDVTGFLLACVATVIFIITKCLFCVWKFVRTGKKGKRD
The data set is described as follows: Inhibition of codeine glucuronidation in rUGT2B4 microsomes. The format is in vitro ADME.

Data set [5] concerns the target T3, UGT2B7. The settings on record: 100 µM; rUGT2B7 microsomes; zidovudine; screening in duplicate.
Data set [6] relates to UGT2B4 in human kidney microsomes. The data set is described as follows: Inhibition of codeine glucuronidation.
The mark [7] stands for this setting: IC50,u (binding-corrected IC50), probe substrate AZT.

In the case of `CCCCCc1cc(O)c2c(c1)OC(C)(C)c1ccc(C)cc1-2` [CBN, cannabinol], the “IC50 of UGT1A9 relative to UGT2B7 in rUGT microsomes (lower)” value against UGT1A9 is recorded as 6 fold. Further, the “IC50 in HLMs relative to rUGT1A9 microsomes (higher)” value in data set [1] is “approximately 3 fold”. Besides, the IC50 against UGT2B7 [2] (IC50, probe substrate AZT) is 49 ± 12 µM; at UGT2B7 [2] (setting [7]) it was 4.2 ± 1.1 µM; in data set [3] (IC50, probe substrate AZT), 57 ± 7.5 µM; in data set [3] (setting [7]), 6.9 ± 0.9 µM; in data set [4] (IC50, probe substrate AZT), 59 ± 8.6 µM; in data set [4] (setting [7]), 5.5 ± 0.79 µM.

Regarding `C=C(C)[C@@H]1CCC(C)=C[C@H]1c1c(O)cc(CCCCC)cc1O` [CBD, cannabidiol], the “inhibition (decrease of relative activity vs control without cannabinoid)” value against UGT2B4 (100 µM, rUGT2B4 microsomes, codeine, screening in duplicate) stood at 94%; against UGT1A9 (100 µM, rUGT1A9 microsomes, propofol, screening in duplicate) it was 98%; against UGT2B7 [5] it was 96%. In addition, at UGT2B4 (rUGT microsomes), the “IC50 in rUGT2B4 microsomes relative to rUGT2B7 microsomes (lower)” value is listed as “approximately 3.6 fold”. The “IC50 of UGT1A9 relative to UGT2B7 in rUGT microsomes (lower)” value on UGT1A9 is reported as 6 fold. In addition, the “IC50 in HLMs relative to rUGT1A9 microsomes (higher)” value in data set [1] is “approximately 3 fold”. Moreover, the half-inhibitory concentration (IC50) against UGT2B7 [2] (IC50, probe substrate AZT) amounted to 21 ± 3.9 µM; at UGT2B7 [2] (setting [7]), 0.82 ± 0.15 µM; in data set [3] (IC50, probe substrate AZT), 35 ± 3.5 µM; in data set [3] (setting [7]), 2.2 ± 0.22 µM; in data set [4] (IC50, probe substrate AZT), 30 ± 4.1 µM; in data set [4] (setting [7]) it was 1.5 ± 0.21 µM. In addition, in data set [6], the “codeine glucuronidation IC50 in HKMs relative to rUGT2B4 microsomes (higher)” value is reported as 5–7 fold.
